Source: patent US11779565B2, “Small organic molecules for use in the treatment of neuroinflammatory disorders” (THE MEDICAL RESEARCH, INFRASTRUCTURE AND HEALTH SERVICES …, priority 2017, dated 2023)

Columns and labels:
SMAD1/5/8 signaling = SMAD1/5/8 signaling by Western blot in P19 cells; assay type: cell-based, murine; details: stimulation for 4 hours vs. no stimulation
Protocol: P19 cells were seeded in 6-well-plates (3.5×10^5 cells/well). On the following day, the cells were either untreated or treated with 5×10^−7 M RA, 5 ng/ml BMP-2 or SMs for 4 h. Cells were washed with ice cold PBS, harvested and lysed with ice cold RIPA buffer (Sigma-Aldrich) supplemented with protease inhibitor cocktail and sodium orthovanadate (Na3VO4) as phosphatase inhibitor (Sigma-Aldrich). Protein concentrations were determined using a BCA protein assay kit (Pierce, Rockford, Ill.). Cell lysates (40-60 μg protein) were separated by 4-15% SDS-PAGE gel electrophoresis and then transferred to nitrocellulose membranes at 0.2 A for 2 h. The membranes were blocked at room temperature for 1 h in 5% (w/v) non-fat-dried milk and then incubated with anti-phospho-Smad1/5/9, anti-Smad1 (Cell signaling Technology, Beverly, Mass., USA) and anti-tubulin (Sigma-Aldrich) antibodies at room temperature for 2 h. The membranes were washed and incubated with alkaline phosphatase-conjugated secondary antibody (Jackson Laboratories Immune Research, PA, USA). Signal was detected using enhanced chemiluminescence kit (Clarity, Bio-Rad Laboratories, Richmond, Calif.) and digital images were captured by MicroChemi (DNR Bio-imaging Systems, Jerusalem, Israel). Protein levels were quantified using ImageJ software and normalized to {alpha}-tubulin. […]

P19 cells = assay: In vitro differentiation assay of P19 cells (MAP-2 positive neurons); assay type: cell-based, murine; details: RA + 5 ng/ml rhBMP-2, day 8
Protocol: P19 cells were grown in a-minimum essential medium (aMEM) (Gibco) containing 7.5% calf serum, 2.5% fetal calf serum, and 0.4 μl/ml penicillin—streptomycin (Gibco), at 37° C., 5% CO2. Cells were replenished with fresh medium every 48 h. For the differentiation study, P19 cells were cultured at concentration of 2×10^5 cells/60 mm bacterial dish and were either unstimulated or incubated with the following stimulations: • 1) 5×10^−7 M all-trans-retinoic acid (RA) (Sigma) • 2) RA+5 ng/ml rhBMP2 (R&D systems) • 3) RA+rhBMP-2+500 ng/ml mouse anti-human BMP-2/4 mAb (R&D systems) • 4) RA+ rhBMP-2+SM1/SM7/SM9 (Maybridge (HitFinder™ Collection)) at concentrations: 0.625, 1.25 and 2.5 μM.
The medium, including RA, BMP supplements and SMs, was replenished after 48 h. After 4 days, aggregates which formed during RA treatment were dispersed enzymatically (0.05% v/v trypsin-0.02% v/v EDTA) and mechanically and plated in tissue culture grade dishes. At this stage, cells were cultured in RA-, BMP- and SM-free medium, which was refreshed every 48 h. MAP-2 positive neurons were examined at day 8 (i.e., day 4 post-RA treatment) by immunofluorescence. Briefly, at day 7, cells were re-cultured in 24 well-plates with cover slips at a final concentration of 5×10^4 cells/well. […]
Next, the effect of the small molecules on neurogenesis in a P19 differentiation model was measured. […]

BMP-2 = target: T1, BMP-2 (Homo sapiens, UniProt P12643); assay: ATDC5 cell based HTS bioassay: ALP production stimulated by BMP-2 and heparin; set-up: species or system mouse; details: rhBMP-2 2 μg/ml with heparin vs. no BMP-2, ATDC5 cells
T1 construct: purchased R&D Systems
T1 sequence (P12643 283-396): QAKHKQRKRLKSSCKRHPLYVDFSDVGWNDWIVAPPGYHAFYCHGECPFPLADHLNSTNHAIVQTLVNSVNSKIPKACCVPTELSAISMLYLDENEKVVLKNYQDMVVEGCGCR
Protocol: Poly-L-lysine (Sigma-Aldrich) was added to 384-well plates and was removed after 30 min of incubation at RT. An assay medium containing DMEM/F12, 2% FBS, 100 units/ml penicillin, […] streptomycin (Biological industries) was added to each well. Recombinant human BMP-2 (rhBMP-2, R&D Systems) was then added to each well to a final concentration of 2 μg/ml. ATDC5 cells (Sigma-Aldrich) were harvested, re-suspended in assay medium and added to a final concentration of 2000 cells/well. Finally, heparin (Sigma-Aldrich) was added to a final concentration of 2 μg/ml. […] After incubation, ALP levels and cell viability were determined using a completely automated protocol. […] ALP level was then determined by addition of CDP-Star® chemiluminescent substrate (Sigma-Aldrich) and measurement of luminescence after incubation for 25 min at RT in the dark. Cell viability was finally determined by addition of CellTiter-Glo® reagent (Biological Industries) and luminescence measurement after 10 min of incubation. […]
A library of small molecules (SM) was screened using the High Throughput Screening bioassay described above. […] The ALP levels and cell viability are shown in FIG. 2 as a percentage of the ALP or viability luminescence levels in the presence of BMP-2 without the SM. […]

Substance: rhBMP-2: Recombinant human BMP-2 (R&D Systems), the stimulus of the assays
- induction of p-SMAD expression (normalized to tubulin) (SMAD1/5/8 signaling): 4.9 fold
- MAP-2+ cells (P19 cells): 31.4±4.3%
- ratio of ALP/cell, induction (BMP-2): 4.3 fold
